# Reference: ChEMBL document CHEMBL1159057, “Novel anilinophthalimide derivatives as potential probes for beta-amyloid plaque in the brain” (Bioorg Med Chem, 2010)
# The chains behind the UniProt entries cited, without tags or fusion partners.
# UniProt P05067, whole entry: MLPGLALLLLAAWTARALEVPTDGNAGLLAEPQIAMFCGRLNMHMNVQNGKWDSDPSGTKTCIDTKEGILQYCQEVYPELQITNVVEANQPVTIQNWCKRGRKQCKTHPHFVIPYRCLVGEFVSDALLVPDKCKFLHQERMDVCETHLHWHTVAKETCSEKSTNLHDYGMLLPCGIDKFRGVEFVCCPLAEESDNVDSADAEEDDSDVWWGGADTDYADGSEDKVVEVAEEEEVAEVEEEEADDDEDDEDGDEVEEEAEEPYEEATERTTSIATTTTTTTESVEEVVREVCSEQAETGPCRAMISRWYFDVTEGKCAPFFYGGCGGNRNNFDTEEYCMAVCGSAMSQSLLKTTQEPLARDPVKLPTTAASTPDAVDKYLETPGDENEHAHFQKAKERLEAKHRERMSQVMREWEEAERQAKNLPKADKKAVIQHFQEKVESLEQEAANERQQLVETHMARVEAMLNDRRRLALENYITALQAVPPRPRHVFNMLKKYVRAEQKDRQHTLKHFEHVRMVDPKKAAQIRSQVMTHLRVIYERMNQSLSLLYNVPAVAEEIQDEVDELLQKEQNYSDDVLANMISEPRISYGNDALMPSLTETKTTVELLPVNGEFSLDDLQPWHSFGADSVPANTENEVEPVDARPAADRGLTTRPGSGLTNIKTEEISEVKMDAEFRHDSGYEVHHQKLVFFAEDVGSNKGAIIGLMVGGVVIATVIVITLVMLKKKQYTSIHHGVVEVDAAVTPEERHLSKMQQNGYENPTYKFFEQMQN
# Target: Amyloid-beta precursor protein (Homo sapiens, UniProt P05067)
# Assay: Displacement of [125I-N-Methyl-4-(4-bromoanilino)phthalimide from beta-amyloid plaques isolated from Alzheimer's disease patient brain
compound,measurement,value
Cc1ccc2c(c1)sc(-c1ccc(N(C)C)cc1)[n+]2C [THIOFLAVIN T],Ki,> 1000 nM
